# Earlier results in US8575183B2, “Heterocyclic compounds and their uses” (priority 2010, dated 2013).
# System: Class I PI3 kinase isoforms
# Conditions: cited from earlier work
structure (smiles),measurement,setting,value
Cc1ccccc1-n1c(Cn2cnc3c(N)ncnc32)nc2cccc(C)c2c1=O [IC87114],selectivity against p110α,p110δ against p110α,greater than 100 fold
same,selectivity against p110β,p110δ against p110β,52 fold
same,selectivity against p110γ,p110δ against p110γ,approx. 8 fold
